# From patent US20040220277A1, “Enantiomeric amphetamine compositions” (priority 2003, published 2004)
# Columns and labels:
# [1] = system: dopamine (DA) release, striatum; assay: Basal release of tritiated dopamine from rat brain slices in vitro (Brandel system); type: cell-based; settings: range in brackets
# Protocol: The DA and NA release is measured in separate brain areas, i.e., in striatum for DA release (evaluating tritiated dopamine) and in the frontal cortex for NA release (evaluating tritiated noradrenaline), using a Brandel system. The brain slices are loaded with the tritiated monoamine (dopamine or noradrenaline) and then superfused to produce basal neurotransmitter release. The slices are also subjected to 2 short periods of electrical stimulation to effect stimulated transmitter release. […] Three concentrations are tested, starting at around 1 μM and titrating up or down, to produce an EC50 value. No positive control is needed as the amphetamine will act as its own control, but there is a vehicle control.
# [2] = system: noradrenaline (NA) release, frontal cortex; assay: Basal release of tritiated noradrenaline from rat brain slices in vitro (Brandel system); type: cell-based; settings: range in brackets
# Protocol: The DA and NA release is measured in separate brain areas, i.e., in striatum for DA release (evaluating tritiated dopamine) and in the frontal cortex for NA release (evaluating tritiated noradrenaline), using a Brandel system. The brain slices are loaded with the tritiated monoamine (dopamine or noradrenaline) and then superfused to produce basal neurotransmitter release. The slices are also subjected to 2 short periods of electrical stimulation to effect stimulated transmitter release.
Structure (SMILES),EC50 [1] [nM],EC50 [2] [nM]
C[C@@H](N)Cc1ccccc1 [l-amphetamine],3900,300
C[C@H](N)Cc1ccccc1 [d-amphetamine],1100,500
